{"sequences": {"note": "The chains behind the UniProt entries cited, without tags or fusion partners. Residues count along the entry.", "UniProt P02769, 25-607": "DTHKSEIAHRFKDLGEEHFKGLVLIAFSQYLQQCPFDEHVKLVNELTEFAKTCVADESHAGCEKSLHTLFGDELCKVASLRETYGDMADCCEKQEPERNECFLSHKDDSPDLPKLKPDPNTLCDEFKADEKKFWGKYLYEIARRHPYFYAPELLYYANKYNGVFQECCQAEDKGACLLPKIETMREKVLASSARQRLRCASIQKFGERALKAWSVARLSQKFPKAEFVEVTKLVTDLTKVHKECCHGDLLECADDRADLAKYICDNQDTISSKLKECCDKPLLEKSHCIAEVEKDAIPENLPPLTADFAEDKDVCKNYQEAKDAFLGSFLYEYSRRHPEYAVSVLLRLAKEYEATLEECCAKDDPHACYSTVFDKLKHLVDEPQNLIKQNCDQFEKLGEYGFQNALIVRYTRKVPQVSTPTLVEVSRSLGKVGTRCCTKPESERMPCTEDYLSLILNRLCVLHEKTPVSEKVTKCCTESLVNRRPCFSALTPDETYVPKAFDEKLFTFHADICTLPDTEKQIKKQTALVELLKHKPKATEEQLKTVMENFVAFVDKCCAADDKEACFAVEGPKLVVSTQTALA"}, "source": "paper PMC8874853", "about": "(Molecules, 2022)", "molecular_target": "T1, BSA (Bos taurus, UniProt P02769)", "T1 construct": "purchased Sigma-Aldrich (St. Louis, MO, USA)", "test": "Synchronous fluorescence spectroscopy (SFS)", "format": "binding, bovine", "conditions": "∆λ = 60 nm, BSA-ERL", "from_the_text": "The microenvironmental changes in the fluorophore residues were identified with the SFS technique. The changes in the amino acid residues Tyr (tyrosine) and Trp (tryptophan) can be observed at ∆λ = 15 nm and ∆λ = 60 nm. A shift in the emission spectra indicates changes in the polarity of amino acid residues around the fluorophore molecules.\nThe microenvironment alterations in the fluorophore residues can be identified with synchronous fluorescence spectroscopy. The changes in emission wavelength indicate polarity change in the fluorophore residue microenvironment. The synchronous spectra recorded at ∆λ = 15 nm and ∆λ = 60 nm provide information about the Tyr and Trp residue microenvironment."}
{"smiles": "C#Cc1cccc(Nc2ncnc3cc(OCCOC)c(OCCOC)cc23)c1", "note": "[ERL, Erlotinib]", "values": [{"measurement": "shift of synchronous spectra for Trp (blue-shift)", "value": 1, "unit": "nm"}]}
